Laboratory results from ChEMBL document CHEMBL5390264, “Exploring Fatty Acid Mimetics as NR4A Ligands” (J Med Chem, 2023).

Protein sequences, listed by entry. Tags and fused reporters are not part of them. Lines headed by an entry give the natural chain unless they say otherwise; changes in a name come on top.
UniProt P22736, whole entry: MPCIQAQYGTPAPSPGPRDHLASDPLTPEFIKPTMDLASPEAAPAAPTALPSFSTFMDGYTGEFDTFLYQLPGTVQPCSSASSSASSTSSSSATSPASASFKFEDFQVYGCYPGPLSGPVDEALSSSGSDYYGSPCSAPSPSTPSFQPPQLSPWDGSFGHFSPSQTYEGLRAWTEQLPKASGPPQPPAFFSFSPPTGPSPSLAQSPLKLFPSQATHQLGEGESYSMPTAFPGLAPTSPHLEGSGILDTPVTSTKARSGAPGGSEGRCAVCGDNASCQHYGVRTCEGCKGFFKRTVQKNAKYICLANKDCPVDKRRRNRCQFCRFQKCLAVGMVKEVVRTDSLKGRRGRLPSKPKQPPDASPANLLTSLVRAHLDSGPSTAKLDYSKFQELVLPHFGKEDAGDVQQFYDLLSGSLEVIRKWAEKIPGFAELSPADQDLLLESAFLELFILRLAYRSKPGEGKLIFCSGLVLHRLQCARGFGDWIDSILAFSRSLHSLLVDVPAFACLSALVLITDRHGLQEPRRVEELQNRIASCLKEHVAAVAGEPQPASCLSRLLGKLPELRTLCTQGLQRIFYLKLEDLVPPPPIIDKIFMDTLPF
UniProt Q92570: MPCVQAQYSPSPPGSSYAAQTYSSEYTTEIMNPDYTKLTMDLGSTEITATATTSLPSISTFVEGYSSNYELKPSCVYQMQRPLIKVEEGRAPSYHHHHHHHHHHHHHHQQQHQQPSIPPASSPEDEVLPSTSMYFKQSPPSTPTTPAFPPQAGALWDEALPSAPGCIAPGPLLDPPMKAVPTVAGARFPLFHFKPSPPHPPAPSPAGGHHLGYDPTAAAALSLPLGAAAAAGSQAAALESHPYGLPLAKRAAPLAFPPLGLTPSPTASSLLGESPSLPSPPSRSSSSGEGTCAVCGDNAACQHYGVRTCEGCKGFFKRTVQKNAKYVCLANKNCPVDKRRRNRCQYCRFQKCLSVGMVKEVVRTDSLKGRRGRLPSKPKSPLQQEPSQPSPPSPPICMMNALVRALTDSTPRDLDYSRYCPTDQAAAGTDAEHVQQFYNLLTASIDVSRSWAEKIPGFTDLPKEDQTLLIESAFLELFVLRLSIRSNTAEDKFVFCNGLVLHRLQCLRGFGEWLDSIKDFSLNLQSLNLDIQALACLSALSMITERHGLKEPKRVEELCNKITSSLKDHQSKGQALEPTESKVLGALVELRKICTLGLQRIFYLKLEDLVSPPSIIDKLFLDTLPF

Columns and labels:
Format in all cases: cell-based
[1] = target: T1, Nuclear receptor subfamily 4immunitygroup A member 1 (Homo sapiens, UniProt P22736); assay: Modulation of human Nur77 LBD transiently transfected in HEK293T cells at 100 to 200 uM incubated for 16 hrs by Gal4-hybrid reporter gene based Dual-glo luciferase assay; conditions: dose 100-200 µM
[2] = target: Nuclear receptor subfamily 4 group A member 3 (Homo sapiens, UniProt Q92570); assay: Agonist activity at human NOR-1 LBD transiently transfected in HEK293T cells assessed as maximal activation incubated for 16 hrs by Gal4-hybrid reporter gene based Dual-glo luciferase assay relative to control; conditions: filed as agonist
[3] = target: T1, Nuclear receptor subfamily 4immunitygroup A member 1; assay: Agonist activity at human Nur77 LBD transiently transfected in HEK293T cells assessed as maximal activation incubated for 16 hrs by Gal4-hybrid reporter gene based Dual-glo luciferase assay relative to control; conditions: filed as agonist

Activity [1] | Emax [2] [%] | Emax [3] [%] | SMILES
inactive |  |  | O=C(O)Cc1ccccc1Br
 | 221 | 211 | O=C(O)c1cccc(OCc2ccc(Cl)cc2Cl)c1

Activity calls are given as the source filed them. No cut-off for these calls is given here.
